Measurements published in ChEMBL document CHEMBL3875209, “Synthesis and biological evaluation of cis-restricted triazole/tetrazole mimics of combretastatin-benzothiazole hybrids as tubulin polymerization inhibitors and apoptosis inducers” (Bioorg Med Chem, 2017).

Assay: Cell cycle arrest in human A549 cells assessed as accumulation at G0/G1 phase at 50 nM after 48 hrs by propidium iodide staining based flow cytometry (reference value: 78.5%)
Format: functional
Summary of the method: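 A549 cells exposed for 48 h at 50 or 100 nM. Cells harvested, washed in PBS, fixed in ice-cold 70% ethanol and stained with propidium iodide. Phase distribution (G0/G1, S, G2/M) measured by flow cytometry against untreated cells.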

In the case of `COc1ccc(/C=C\c2cc(OC)c(OC)c(OC)c2)cc1O` [COMBRETASTATIN A4], the Activity is reported as 56.1%.
